Experiments:
Format in all cases: cell-based
Conditions in all cases: Table 4; Chlorine 1 ppm
[1] = test system: bacteria Alcaligenes, Chryseobacterium and Sphingomonas; assay: Prevention secondary screen: bacterial plate counts
[2] = test system: eight species of bacteria and four species of fungi typically found in swimming pool water; assay: Prevention secondary screen: laboratory scale model of a swimming pool, water clarity and hydrogen peroxide loss
[3] = test system: fungi Paecilomyces and Trichoderma; assay: Prevention secondary screen: fungal plate counts

Chlorine
Bacterial Counts at Clarity of 1.0 NTU or above [1]: 6.4 × 10^4 CFU/ml | Number of Days of Clarity below 1.0 NTU [2]: 23 days | Fungal Counts at Clarity of 1.0 NTU or above [3]: 0 CFU/ml

— patent US20120207861A1, “BIOCIDAL COMPOSITION AND METHOD FOR TREATING RECIRCULATING WATER SYSTEMS” (priority 2006, published 2012)
